Here are results for one substance from patent US6986997B1, “Method for screening using an OAT1 transporter protein” (Fuji Bio Medix Co., Ltd., priority 1997, dated 2006).

This experiment has as its target T1, rat OAT1 (Rattus norvegicus, UniProt O35956).
T1 sequence (O35956 1-551): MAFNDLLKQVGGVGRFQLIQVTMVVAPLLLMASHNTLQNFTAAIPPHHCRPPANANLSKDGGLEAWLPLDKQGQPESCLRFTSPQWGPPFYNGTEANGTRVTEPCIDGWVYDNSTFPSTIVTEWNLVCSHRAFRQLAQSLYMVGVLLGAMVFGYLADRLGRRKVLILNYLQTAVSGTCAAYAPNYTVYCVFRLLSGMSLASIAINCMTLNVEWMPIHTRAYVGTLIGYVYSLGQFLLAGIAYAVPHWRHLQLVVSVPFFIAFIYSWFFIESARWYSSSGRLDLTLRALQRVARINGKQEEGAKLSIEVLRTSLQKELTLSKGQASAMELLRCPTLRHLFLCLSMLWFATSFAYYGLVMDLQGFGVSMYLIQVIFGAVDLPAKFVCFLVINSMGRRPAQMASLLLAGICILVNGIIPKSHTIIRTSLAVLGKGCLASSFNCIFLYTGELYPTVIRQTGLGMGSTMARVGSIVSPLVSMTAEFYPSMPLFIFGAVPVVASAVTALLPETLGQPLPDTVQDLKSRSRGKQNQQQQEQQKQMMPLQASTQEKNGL
Kind of experiment: Uptake of radio labeled substances into oocytes expressing OAT1. The note with it: versus control oocytes not injected with cRNA.

Turning to α-ketoglutarate [^14C-α-ketoglutarate], the “transport of radio labeled substance into oocytes expressing OAT1” value is “transported”.
